Measured values as given in patent publication US4432983A (Research Corporation, priority 1981, dated 1984).

By UniProt entry, the sequences of proteins in these tests, tags left out.
UniProt P47747, whole entry: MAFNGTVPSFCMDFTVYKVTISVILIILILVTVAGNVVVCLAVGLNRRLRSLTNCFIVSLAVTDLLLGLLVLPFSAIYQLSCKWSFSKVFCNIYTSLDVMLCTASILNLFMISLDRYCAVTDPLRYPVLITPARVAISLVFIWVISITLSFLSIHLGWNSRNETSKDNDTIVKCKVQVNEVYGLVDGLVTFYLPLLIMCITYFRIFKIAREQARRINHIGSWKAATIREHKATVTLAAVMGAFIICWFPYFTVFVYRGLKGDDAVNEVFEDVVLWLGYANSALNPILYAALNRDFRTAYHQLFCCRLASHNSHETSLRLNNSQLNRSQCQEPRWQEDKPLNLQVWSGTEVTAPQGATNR

Target: T1, histamine H2-receptor (isolated guinea pig right atrium) (Cavia porcellus, UniProt P47747)
T1 construct: All other tissue was carefully trimmed away, leaving only the right atrium; from tissue; host or cells: isolated right atrium of guinea pig (Hartley strain) heart
Test: Histamine H2-receptor antagonism: histamine-induced chronotropic response of isolated guinea pig right atrium
Procedure: Guinea pigs (Hartley strain) of either sex (400-700 g) were allowed at least two weeks acclimation period. The animals were housed two per cage in wire-meshed bottom stainless steel cages in animal quarters maintained on a 12 hour light:12 hour dark cycle with ambient temperature of approximately 24° C. Food (Ralston-Purina guinea pig chow #5025) and water were provided ad libitum.
The animals were stunned by a blow to the head and the heart was quickly removed and placed in Tyrode's solution (composition in g/L of distilled water: NaCl, 8.00; KCl, 0.20; MgSO4.7 H2 O, 0.10; CaCl2, 0.20; NaH2 PO4, 0.05; NaHCO3, 1.00; glucose, 1.00) at room temperature. All other tissue was carefully trimmed away, leaving only the right atrium. […]
A straight line was fitted to the data points of each determination within each group by linear regression analysis. The slope and the ED50 were calculated from the regression line, the slopes and ED50 values of each group were averaged, and the standard deviations were calculated. […] The 95 percent confidence limits were calculated using the following formula: confidence limits=±ts√N where t=Student's t value, s=standard deviation, and N=number of determinations.

Structure (SMILES): CN/C(=N/CCSCc1nc[nH]c1C)NC#N [cimetidine, reference compound]
- Kb: 200 nM
